For 4 compounds, IC50 results are on record in patent publication US20240209053A1 (Protagonist Therapeutics, Inc., priority 2021, published 2024).

The target of one experiment is T1, ferroportin (Homo sapiens, UniProt Q9NP59).
T1 sequence (Q9NP59 1-571): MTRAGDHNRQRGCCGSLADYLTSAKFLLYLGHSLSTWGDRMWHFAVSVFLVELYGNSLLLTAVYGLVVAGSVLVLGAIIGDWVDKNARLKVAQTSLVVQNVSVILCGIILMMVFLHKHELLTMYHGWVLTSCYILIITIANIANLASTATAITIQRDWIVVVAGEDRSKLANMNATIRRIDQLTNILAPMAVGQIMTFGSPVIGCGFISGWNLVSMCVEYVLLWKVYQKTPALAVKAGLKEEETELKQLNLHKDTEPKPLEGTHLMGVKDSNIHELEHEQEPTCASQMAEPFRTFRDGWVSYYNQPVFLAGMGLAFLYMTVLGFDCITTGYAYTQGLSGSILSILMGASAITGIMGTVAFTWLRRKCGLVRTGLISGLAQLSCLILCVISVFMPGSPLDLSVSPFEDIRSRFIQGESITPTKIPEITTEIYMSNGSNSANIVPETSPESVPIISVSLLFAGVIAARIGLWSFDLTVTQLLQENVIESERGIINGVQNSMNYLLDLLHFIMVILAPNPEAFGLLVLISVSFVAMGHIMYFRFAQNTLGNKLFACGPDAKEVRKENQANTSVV
Description: T47D cell-based ferroportin internalization assay in presence of 0.5% mouse serum albumin (MSA). The following applies: Table 6B, T47D cells. On the procedure: The potency of the peptides in causing ferroportin internalization was evaluated in a T47D cell-based assay. […] In this internalization assay, the potency of the test peptides was evaluated in presence of serum albumin which is the main protein component in the blood. T47D cells were maintained in RPMI media (containing required amount of fetal bovine serum) and regularly sub-cultured. In preparation for the assay, the cells were seeded in 96-well plates at a density of 80-100 k cells per well in 100 ul volume and allowed to rest overnight. On the next day, test peptides were first prepared in dilution series (10-point series, starting concentration of ˜5 μM, typically 3-4×fold dilution steps), all with 0.5% mouse serum albumin (MSA purified from mouse serum; Sigma, A3139). The test peptide dilution series were allowed to incubate at room temperature for 30 min. Then the media was aspirated from the 96-well cell plate and test peptide dilution series were added. After 1 hr incubation, the media with test peptides was aspirated out and AF647-conjugated detection peptide was added at fixed concentration of 200 nM. The AF647-conjugated detection peptide was previously verified to bind to ferroportin and cause its internalization. The cells were washed again after a 2 hr incubation in preparation for flow cytometry analysis. The Median Fluorescence Intensity (MFI) of the AF647-positive population was measured (after removing dead cells and non-singlets from the analysis). The MFI values were used to generate a dose-response curve and obtain IC50 potencies for the test peptides. The IC50 potencies were calculated by using 4-parameter non-linear fitting function in Graphpad Prism (Table 6A).

Experiment [1] deals with T2, human ferroportin (SLC40A1) (Homo sapiens, UniProt Q9NP59).
T2 sequence (Q9NP59 1-571): T1 sequence (Q9NP59 1-571)
The experiment can be described thus: FPN activity assay: internalization/degradation of ferroportin-GFP in stably transfected HEK293 cells (decrease in GFP fluorescence). The class given is cell-based. The following applies: Table 6B, Formula (X) peptides. On the procedure: Peptide analogues were tested in vitro for induction of internalization of the human ferroportin protein. Following internalization, the ferroporin protein is degraded. The assay used (FPN activity assay) measures a decrease in fluorescence of the receptor. The cDNA encoding the human ferroportin (SLC40A1) was cloned from a cDNA clone from Origene (NM_014585). The DNA encoding the ferroportin was amplified by PCR using primers also encoding terminal restriction sites for subcloning, but without the termination codon. The ferroportin receptor was subcloned into a mammalian GFP expression vector containing a neomycin (G418) resistance marker in such that the reading frame of the ferroportin was fused in frame with the GFP protein. The fidelity of the DNA encoding the protein was confirmed by DNA sequencing. HEK293 cells were used for transfection of the ferroportin-GFP receptor expression plasmid. The cells were grown according to standard protocol in growth medium and transfected with the plasmids using Lipofectamine (manufacturer's protocol, Invitrogen). The cells stably expressing ferroportin-GFP were selected using G418 in the growth medium (in that only cells that have taken up and incorporated the cDNA expression plasmid survive) and sorted several times on a Cytomation MoFloTM cell sorter to obtain the GFP-positive cells (488 nm/530 nm). The cells were propagated and frozen in aliquots. […] Compound was added to desired final concentration for at least 18 hours in the incubator. Following incubation, the remaining GFP-fluorescence was determined either by whole cell GFP fluorescence (Envision plate reader, 485/535 filter pair), or by Beckman Coulter QuantaTM cytometer (express as Geometric mean of fluorescence intensity at 485 nm/525 nm). Compound was added to desired final concentration for at least 18 hours but no more than 24 hours in the incubator. […] The “RI” in RI-Mini-Hepcidin refers to Retro Inverse. A retro inverse peptide is a peptide with a reversed sequence in all D amino acids. An example is that […] becomes […]. The EC50 of these reference compounds for ferroportin internalization/degradation was determined according to the FPN activity assay described above. These peptides served as control standards.

As usually defined, the IC50 is the midpoint of a concentration-inhibition curve. In the case of `CC(C)CC(=O)N[C@H]1CCC/C=C/CCC[C@@H](C(=O)N[C@H](CC(=O)N[C@@H](CCCCNC(=O)COCCOCCNC(=O)COCCOCCNC(=O)C[N+](C)(C)CCNC(=O)CCCCCCCCCCCCCCCCC(=O)O)C(=O)N[C@H](CCCNC(=N)N)C(N)=O)Cc2ccccc2)NC(=O)[C@H](CC(C)(C)C)NC(=O)[C@H](C)NC(=O)[C@@H]2CCCN2C(=O)[C@H](C(c2ccccc2)c2ccccc2)NC(=O)[C@H](Cc2c[nH]cn2)NC(=O)[C@H]([C@@H](C)O)NC1=O` [compound 101], the half-inhibitory concentration (IC50) was 10 to 100 nM at ferroportin and 1 to 10 nM in experiment [1].

Regarding `CCCCCCCCCCCCCCCC(=O)NCCCCCC(=O)NCCCC[C@H](NC(=O)C[C@H](Cc1ccccc1)NC(=O)[C@@H]1CCC/C=C/CCC[C@H](NC(=O)CC(C)C)C(=O)N[C@@H]([C@@H](C)O)C(=O)N[C@@H](Cc2c[nH]cn2)C(=O)N[C@@H](C(c2ccccc2)c2ccccc2)C(=O)N2CCC[C@H]2C(=O)N[C@@H](C)C(=O)N[C@@H]([C@@H](C)CC)C(=O)N1)C(=O)N[C@H](CCCNC(=N)N)C(N)=O` [compound 114], the half-maximal inhibitory concentration (IC50) (at ferroportin; in experiment [1]) was 1 to 10 nM in each case.

As for `CC[C@H](C)[C@@H]1NC(=O)[C@H](CCCCNC(=O)COCCOCCNC(=O)COCCOCCNC(=O)C[N+](C)(C)CCNC(=O)CCCCCCCCCCCCCCCCC(=O)O)NC(=O)[C@@H]2CCCN2C(=O)[C@H](C(c2ccccc2)c2ccccc2)NC(=O)[C@H](Cc2c[nH]cn2)NC(=O)[C@H]([C@@H](C)O)NC(=O)[C@@H](NC(=O)CC(C)C)CCC/C=C/CCC[C@@H](C(=O)N[C@H](CC(=O)N[C@H](CCCCN)C(N)=O)Cc2ccccc2)NC1=O` [compound 120], the IC50 (at ferroportin; in experiment [1]) was 10 to 100 nM throughout.

For `CC[C@H](C)[C@@H]1NC(=O)[C@H](CCCCNC(=O)COCCOCCNC(=O)COCCOCCNC(=O)[C@H](CN)NC(=O)CCCCCCCCCCCCCCCCC(=O)O)NC(=O)[C@@H]2CCCN2C(=O)[C@H](C(c2ccccc2)c2ccccc2)NC(=O)[C@H](Cc2c[nH]cn2)NC(=O)[C@H]([C@@H](C)O)NC(=O)[C@@H](NC(=O)CC(C)C)CCC/C=C/CCC[C@@H](C(=O)N[C@H](CC(=O)N[C@H](CCCCN)C(N)=O)Cc2ccccc2)NC1=O` [compound 121], the IC50 (at ferroportin; in experiment [1]) was 10 to 100 nM throughout.
